Measured values published in patent US9284528B2, “Use of stem cell conditioned medium to inhibit oxidation for anti-aging skin” (GROWGENE BIOTECH INC., priority 2014, dated 2016).

Assay: Hydrogen peroxide (H2O2) scavenging assay
Settings: 200 mg/L L-ascorbic acid; 10-minute reaction; A230; mean±SEM, triplicate

With O=C1O[C@H]([C@@H](O)CO)C(O)=C1O [L-ascorbic acid] the “H2O2 scavenged (scavenging effects)” value was 88.18%±1.06%.
